Assay results from US8053457B2, “3-imidazolyl-indoles for the treatment of proliferative diseases” (Novartis AG, priority 2007, dated 2011).

Chains of the proteins cited; added tags and fusions are not shown. Residues count along the entry.
UniProt Q00987, 2-185 limits assumed: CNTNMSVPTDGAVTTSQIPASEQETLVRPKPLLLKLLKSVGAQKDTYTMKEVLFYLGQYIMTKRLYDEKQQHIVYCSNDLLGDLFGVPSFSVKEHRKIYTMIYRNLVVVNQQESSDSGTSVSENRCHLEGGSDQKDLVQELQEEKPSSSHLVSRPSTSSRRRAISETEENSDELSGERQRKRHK
UniProt O15151, 2-185 limits assumed: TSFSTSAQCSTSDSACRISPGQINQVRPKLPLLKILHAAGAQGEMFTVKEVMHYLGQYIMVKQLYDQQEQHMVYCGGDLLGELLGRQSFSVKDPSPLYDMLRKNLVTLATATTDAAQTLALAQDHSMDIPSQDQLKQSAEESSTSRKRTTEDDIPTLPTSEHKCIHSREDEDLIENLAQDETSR

What was measured:
[1] = molecular target: Hdm2 protein (amino acids 2-185) (Homo sapiens, UniProt Q00987); test: Fluorescence polarisation assay, inhibition of p53-Hdm2 interaction; settings: read-out: IC50 (μM) of p53-Hdm2 inhibition Fluorescence polarisation assay; Hdm2 3 nM, Cy5-labelled p53-derived peptide 1 nM
Procedure: Fluorescence Polarisation Assay
The inhibition of p53-Hdm2 interaction is measured by fluorescence polarization. Fluorescence polarization measures the rotational movement of molecules in a homogeneous suspension. For this assay, Hdm2 protein (amino acids 2-185) is combined with a Cy5-labelled p53-derived peptide optimised for Hdm2 binding (J. Med. Chem. 2000, 43, 3205-3208). Upon excitation of the Cy5 fluorescent ligand with linearly polarized light, the peptide rotates faster and emits light which is perpendicularly polarized. If the peptide is bound by Hdm2, rotation will slow down and the perpendicular component will decrease. […] The ratiometric polarization assay readout is calculated from the parallel and perpendicular components of the fluorescence light with respect to the polarization of the excitation light.
The test is performed by combining 7 μl compounds diluted in dimethyl sulfoxide (DMSO) (10% final concentration) with 31.5 μl […] (final concentration 3 nM) in reaction buffer (PBS, 0.1% CHAPS, 1 mM DTT (dithiothreitol)). […] For measurement of samples, an Analyst AD multimode microplate reader (Molecular Devices Corporation, Sunnyvale, Calif., USA) with the following settings is used: Dichroic mirror 650 nm, Excitation 630 nm, Emission 695 nm. […] IC50 values are calculated by curve fitting using XLfit. […]

[2] = molecular target: MDM4 protein (amino acids 2-185) (Homo sapiens, UniProt O15151); test: Time resolved fluorescence energy transfer (TR-FRET) assay, inhibition of p53-Hdm4 interaction; type: binding; settings: read-out: IC50 (μM) of p53-Hdm4 inhibition (TR-FRET) Assay; MDM4-Bio 10 nM, Cy5-p53 peptide 20 nM
Procedure: Time Resolved Fluorescence Energy Transfer (TR-FRET) Assay
The inhibition of p53-Hdm4 interaction is measured by time resolved fluorescence energy transfer (TR-FRET). Fluorescence energy transfer (or Foerster resonance energy transfer) describes an energy transfer between donor and acceptor fluorescent molecules. For this assay, MDM4 protein (amino acids 2-185), tagged with a C-terminal Biotin moiety, is used in combination with a Europium labeled streptavidin (Perkin Elmer, Inc., Waltham, Mass., USA) serving as the donor fluorophore. The p53 derived, Cy5 labeled peptide Cy5-TFSDLWKLL (p53 aa18-26) is the energy acceptor. Upon excitation of the donor molecule at 340 nm, binding interaction between MDM4 and the p53 peptide induces energy transfer and enhanced response at the acceptor emission wavelength at 665 nm. Disruption of the formation of the p53-MDM4 complex due to an inhibitor molecule binding to the p53 binding site of MDM4 results in increased donor emission at 615 nm. The ratiometric FRET assay readout is calculated from the raw data of the two distinct fluorescence signals measured in time resolved mode (countrate 665 nm/countrate 615 nm×1000). […]

IC50 [1]: 0.3 µM
IC50 [2]: 10.4 µM
Compound: CN1CCN(CCNC(=O)c2[nH]c3cc(Cl)ccc3c2-c2c(-c3ccccc3)ncn2Cc2ccc(Cl)cc2)CC1
